Experiment [1] in a line: Selectivity index, ratio of IC50 for inhibition of recombinant mouse CLK1 extracted from bacteria using GRSRSRSRSRSR as substrate to IC50 for inhibition of human haspin kinase domain (470 to 798 residues) extracted from bacteria using histone H3 (1 to 21) peptide as substrate.
The species entered for the next experiment is Homo sapiens. As to the kind of experiment: Selectivity index, ratio of IC50 for inhibition of recombinant human PIM-1 extracted from bacteria using histone H1 as substrate to IC50 for inhibition of human haspin kinase domain (470 to 798 residues) extracted from bacteria using histone H3 (1 to 21) peptide as substrate.

`Cn1cc(-c2cccnc2)c2cc3ccncc3cc21`: the Ratio IC50 in experiment [1] amounted to 5.6. In the case of `c1cncc(-c2c[nH]c3cc4cnccc4cc23)c1`, the Ratio IC50 in the experiment filed under Homo sapiens is 3.7.

Values taken from ChEMBL document CHEMBL6182870, “Synthesis and biological activity of 1H-pyrrolo[3,2-g]isoquinolines as Haspin kinase inhibitors” (Bioorg Med Chem, 2025).
